What was measured:
[1] = system: M1 receptor and/or M1-mEGFP; settings: 1 mM carbachol, membranes from homozygous M1-mEGFP mice
M1 receptor = settings: transfected cell systems; ref [11], [13]; cited from earlier work

Row | increase in bound [^35S]GTPγS compared with WT [1] | SMILES | effect on dimeric and oligomeric fraction of the M1 receptor (M1 receptor)
1 | not different | C[N+](C)(C)CCOC(N)=O [carbachol] | –
2 | – | CN1CCN(CC(=O)N2c3ccccc3C(=O)Nc3cccnc32)CC1 [pirenzepine] | increase the dimeric and oligomeric fraction of the M1 receptor

Reference: article PMC9214538, “The M1 muscarinic receptor is present in situ as a ligand-regulated mixture of monomers and oligomeric complexes” (Proceedings of the National Academy of Sciences of the …, 2022)
